The assay addresses Trypanothione reductase (Leishmania infantum) (UniProt A4HSF7). The assay is described as follows: Inhibition of Leishmania infantum Trypanothione reductase expressed in Escherichia coli BL21 (DE3) assessed as enzyme residual activity using trypanothione as substrate at 100 uM preincubated for 3 mins followed NADPH addition by spectrophotometric analysis.

With `CN1CCN(C(=O)c2ccc(F)cc2)CC1`, the Activity worked out at 78.5%.

(Values after ChEMBL document CHEMBL5344440, “Fragment Merging, Growing, and Linking Identify New Trypanothione Reductase Inhibitors for Leishmaniasis” (J Med Chem, 2024).)
